The text below walks through data of ChEMBL document CHEMBL5131571, “Design, Synthesis, and Evaluation of Lung-Retentive Prodrugs for Extending the Lung Tissue Retention of Inhaled Drugs” (J Med Chem, 2022).

This data set is described as follows: Stability of compound in PBS at pH 6.5 assessed as half life by LC-MS analysis. Format: physicochemical. The settings on record: buffer. A digest of the protocol: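 1000 ng/mL final (from 200 μg/mL D6-DMSO stock) in prewarmed matrix at 37 °C with continuous shaking, triplicate. Matrices: pH 6.5 or 7.4 phosphate buffer, 1 in 4 water-diluted Wistar Han lung homogenate (pH 6.8), or fresh rat blood. Timed aliquots quenched in MeCN with labetalol/reserpine internal standards. Half-life by MS, mean ± SD.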

As to `CC(OC(=O)CN(C)C)OC(=O)N1CCC(OC(=O)C(O)(c2ccccc2)c2ccccc2)CC1` (stereo unspecified), the t1/2 was 3.53 h.
